Assay results reported in publication PMC4721142, “Randomized controlled studies on the efficacy of antiarthritic agents in inhibiting cartilage degeneration and pain associated with progression of osteoarthritis in the rat” (Arthritis Research & Therapy, 2016).

System: RAW 264.7 cells
Assay: RANKL-mediated osteoclastogenesis / matrix resorption (Osteologic) assay

Structure (SMILES): NCCCC(O)(P(=O)(O)O)P(=O)(O)O [Alendronate, Alendronate sodium]
- Lowest inhibitory concentration, matrix resorption: 1.25 µM
